We go through 7 substances from US20110218339A1, “Crystalline polymorph of biopterin and production method thereof” (KANEKA CORPORATION, priority 2010, published 2011).

Data set [1] in a line: storage stability of the crystal form (re-analysis by powder X-ray diffraction). The class given is physicochemical. The conditions noted are these: for stability of the crystalline solid / change into other crystalline solids: ambient temperature and atmosphere, long-term storage under general conditions (avoiding direct sunlight, high temperatures and humidities); for change into a different crystal form after storage: stored at ambient temperature and pressure for 14 days. As for the experimental part:
A solution was prepared by dissolving the crude biopterin (107.0 mg, 78.1% purity) obtained in Production Example 1 in a 0.1 N aqueous solution of sodium hydroxide (20 mL) and then adding ethanol (10 mL) thereto. To the stirred solution, 0.1 N aqueous acetic acid (20 mL) was added dropwise over a period of approximately 10 minutes. The precipitated crystals were separated by filtration and dried in vacuo overnight at 40° C., to obtain 81.1 mg of biopterin crystalline solid A having a purity of 91.8%.
Hexane (20 mL) was added to the crude biopterin (103.9 mg), which was also used in Example 1, and the mixture was stirred for 6 hours so as to obtain a suspension. The crystals were separated by filtration and dried overnight at ambient temperature and pressure, to obtain 98.2 mg of biopterin crystalline solid E having a purity of 84.3%. The present crystalline solid was in the form of particles and had good filtering properties.

Data set [2] is described as follows: digital microscope observation of particle shape and diameter. The class given is physicochemical. Particulars: digital microscope (Keyence VHX-200). Here is the method: A solution was prepared by dissolving the crude biopterin (110.9 mg), which was also used in Example 1, in a 0.1 N aqueous solution of sodium hydroxide (20 mL). To the stirred solution, 0.1 N aqueous hydrochloric acid (20 mL) was added dropwise over a period of approximately 10 minutes. The precipitated crystals were separated by filtration and dried in vacuo overnight at 40° C., to obtain 83.9 mg of biopterin crystalline solid B having a purity of 91.1%.

As to biopterin [Example 1], in data set [1] (listed as crystalline solid A), the “stability of the crystalline solid / change into other crystalline solids” value was “stable”. For the same substance, the “change into a different crystal form after storage” value in data set [1] is “no signs of changing into a different crystal form”.
For the substance biopterin [Example 2], the “change into a different crystal form after storage” value in data set [1] is given as “no signs of changing into a different crystal form”. For the same substance, in data set [2], the “diameter of spherical particles” value is given as “approximately 25 μm”.
As to biopterin [Example 3], in data set [2], the “diameter of spherical particles” value was “approximately 20 μm”.
Take biopterin [Example 4]: in data set [2], the “diameter of spherical particles” value was “approximately 10 μm”.
In the case of biopterin [Example 9], the “stability of the crystalline solid / change into other crystalline solids” value in data set [1] (listed as crystalline solid D) was “stable”. The “change into a different crystal form after storage” value in data set [1] is “no signs of changing into a different crystal form”.
In the case of biopterin [Example 10], the “stability of the crystalline solid / change into other crystalline solids” value in data set [1] (listed as crystalline solid E) was “relatively unstable”. Further, the “change into a different crystal form after storage” value in data set [1] is recorded as “changed to that of crystalline solid D”.
As for biopterin [crystalline solid B], the “stability of the crystalline solid / change into other crystalline solids” value in data set [1] is on record as “stable”.
